Assay: Open-label clinical pharmacokinetic study of oral XBD173 and etifoxine in healthy volunteers (plasma LC-MSMS)
Type: in vivo, human
Details: Etifoxine multiple dosing (50mg TDS), Day 7 (2-3 hours post dose)
Method: This was a single centre, open‐label study enrolling 4 adult healthy volunteers (aged 35–65 y) irrespective of rs6971 genotype. Detailed inclusion and exclusion criteria are shown in the supplementary information. […] As a precaution, therefore, a long washout period was chosen. The first dose was taken at the clinical research facility and the participant was monitored for 4 hours. Subsequent doses were taken at home by the participant. On day 7, the participant returned for a final assessment. […] The PI of the study was Paul M. Matthews (DPhil, FRCP, FMedSci) who is an author on the manuscript.
Plasma samples for pharmacokinetic analysis were obtained on day 1 at 0.5, 1, 2, 3, 4 hours following the first dose. […] Plasma samples were stored at −20°C or lower until analysis. Plasma samples (25 μL) were prepared for analysis by protein precipitation with acetonitrile containing internal standard (tolbutamide; 200 μL) followed by mixing (150 rpm, 15 min) and centrifugation (1500 g, 15 min). The supernatant (50) μL was diluted with water (100 μL) and mixed (100 rpm, 15 min). […] Injection volume was 1 μL.

In the case of `CCNC1=Nc2ccc(Cl)cc2C(C)(c2ccccc2)O1` (centres unmarked) [etifoxine], the Plasma concentration (Mean (SEM)) is reported as 13.1 (4.1) ng/mL, the Plasma concentration (participant 1) is reported as 14.0 ng/mL and the Plasma concentration (participant 2) is reported as 23.5 ng/mL. It also gave a Plasma concentration (participant 3) of 11.3 ng/mL and a Plasma concentration (participant 4) of 3.7 ng/mL.
